Measurements reported in US20060134801A1, “Methods and compositions involving MDA-7” (Board of Regents, The University of Texas System, priority 2003, published 2006).

Tested on: MCF-7-Her-18 tumors
Test: MCF-7-Her-18 mammary fat pad xenograft
Type: in vivo, nude mice
Conditions: vector 2×10^10 vp weekly ×3; Herceptin 110 μg i.p. twice weekly ×3
Description: The nude mice were obtained from Charles River Laboratories (Wilmington, Mass.). Estrogen pellets were injected in the posterior cervical region at a dose of 0.5 mg. Two days later, MCF-7-Her-18 cells were injected into the thoracic mammary fat pad at a density of 5×10^6 cells per mouse. […] The viral vectors were injected directly into the tumor at a dose of 2×10^10 viral particles once per week for three weeks. […] The tumor size was measured and recorded twice a week until sacrifice.

Herceptin: monoclonal antibody that blocks the HER2-neu receptor
time to tumor doubling: 16 days
